Measurements reported in patent publication US20240368122A1, “JAK2 INHIBITORS AND METHODS OF USE THEREOF” (RELAY THERAPEUTICS, INC., priority 2021, published 2024).

Protein sequences, listed by entry. Tags and fused reporters are not part of them. Residues count along the entry.
UniProt O60674, 536-812 W659A/W777A/F794H limits assumed: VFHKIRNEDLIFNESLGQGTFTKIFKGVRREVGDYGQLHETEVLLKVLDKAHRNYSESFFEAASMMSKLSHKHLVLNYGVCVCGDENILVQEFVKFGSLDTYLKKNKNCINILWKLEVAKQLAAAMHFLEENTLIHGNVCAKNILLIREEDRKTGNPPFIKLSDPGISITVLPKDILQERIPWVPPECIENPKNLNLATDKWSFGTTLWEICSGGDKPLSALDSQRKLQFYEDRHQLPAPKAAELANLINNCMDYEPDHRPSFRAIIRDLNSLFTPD

Key:
[1] = test system: TF1 JAK2 V617F STAT3 reporter; test: Cellular TF1 STAT3 assay (luciferase reporter), JAK2 V617F; conditions: read-out: Cell PD-TF1 JAK2 V617F STAT3 (IC50), TF1 cells
[2] = target: JAK2 JH2 WT (V536-D812) [W659A, W777A, F794H solubilizing mutations] (Homo sapiens, UniProt O60674, F794H/W659A/W777A); test: Surface Plasmon Resonance (SPR) binding assay, JAK2 JH2 domain; conditions: read-out: SPR JAK2 JH2 KD
[3] = test system: TF1 JAK2 V617F STAT5 reporter; test: Cellular TF1 STAT5 assay (luciferase reporter), JAK2 V617F; conditions: read-out: Cell PD TF1 V617F STAT5 (IC50), TF1 cells

IC50 [1]: 500 to 5000 nM
Kd [2]: 0.01 to 10 nM
IC50 [3]: 500 to 5000 nM
Compound: CNC(=O)c1nnc(NC(=O)C2CC2)cc1Nc1cccc(-c2cnn(C3CC(N(C)c4ccccn4)C3)c2)c1OC (stereo not drawn)
